Drawing on patent US20250026748A1, “N-(5-SUBSTITUTED-[(1,3,4-THIADIAZOLYL) OR (THIAZOLYL)])(SUBSTITUTED)CARBOXAMIDE COMPOUNDS AND USE THEREOF FOR INHIBITING HUMAN POLYMERASE THETA” (Repare Therapeutics Inc., priority 2021, published 2025), this text covers IC50 for 1 compound.

Protein sequences, listed by entry. Tags and fused reporters are not part of them. Residues count along the entry.
UniProt O75417, 1-894 limits assumed: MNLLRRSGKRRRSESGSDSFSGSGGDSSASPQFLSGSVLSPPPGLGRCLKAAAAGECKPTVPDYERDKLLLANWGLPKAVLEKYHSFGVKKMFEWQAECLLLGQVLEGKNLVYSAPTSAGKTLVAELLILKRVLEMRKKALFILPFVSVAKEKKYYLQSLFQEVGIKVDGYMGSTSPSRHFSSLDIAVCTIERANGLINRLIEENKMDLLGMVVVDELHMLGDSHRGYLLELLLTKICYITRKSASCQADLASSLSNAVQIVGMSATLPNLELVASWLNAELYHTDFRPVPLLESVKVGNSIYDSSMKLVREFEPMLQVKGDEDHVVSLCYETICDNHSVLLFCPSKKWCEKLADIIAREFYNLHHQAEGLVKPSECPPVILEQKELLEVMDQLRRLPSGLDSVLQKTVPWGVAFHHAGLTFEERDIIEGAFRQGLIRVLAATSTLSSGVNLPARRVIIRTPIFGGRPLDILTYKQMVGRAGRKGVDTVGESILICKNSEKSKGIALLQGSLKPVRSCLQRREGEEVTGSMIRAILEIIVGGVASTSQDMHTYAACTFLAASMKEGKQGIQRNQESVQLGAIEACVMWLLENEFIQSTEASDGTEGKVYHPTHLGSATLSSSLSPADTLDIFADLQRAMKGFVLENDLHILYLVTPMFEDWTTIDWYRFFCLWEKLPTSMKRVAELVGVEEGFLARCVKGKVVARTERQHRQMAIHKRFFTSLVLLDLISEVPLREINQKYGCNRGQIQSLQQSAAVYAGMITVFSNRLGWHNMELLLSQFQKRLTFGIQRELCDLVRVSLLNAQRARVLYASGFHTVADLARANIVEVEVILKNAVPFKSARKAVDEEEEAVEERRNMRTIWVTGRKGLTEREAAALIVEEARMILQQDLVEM

The target of the test is PolQ ATPase enzyme (1-894) (Homo sapiens (Human), UniProt O75417). As to the kind of experiment: Polθ ATPase enzymatic assay (0.5 nM enzyme concentration), ADP-Glo. Particulars: read-out: IC50 (nM) [PolQ] 0.5 nM; average IC50; 0.5 nM PolQ ATPase enzyme (1-894).

Molecules are shown by their SMILES.

For orientation: IC50 means the midpoint of a concentration-inhibition curve.

Take `COc1cnc(C(F)F)cc1-c1cc(-c2ccn(C)n2)ncc1C(=O)Nc1nnc([C@@H]2C[C@H]2c2ccc(Cl)cc2)s1` (relative stereo): the IC50 was found to be 0.55 nM.
